{"source": "patent US12398179", "binders": {"B1": {"name": "CcamGA-WLA-YRPK-bio (peptide)", "peptide": "CGAWLAYPDSVPYRPK", "modifications": "N-terminal Ccam (as printed, not explained); biotin on the C-terminal lysine (K-bio)"}}, "target": "EphA2 extracellular domain fused to the Fc portion of an antibody (EphA2 Fc)", "assay": "competition ELISA: inhibition of ephrin-A5 AP binding to immobilized EphA2 Fc; average ± SE (number of experiments)"}
{"binder": "B1", "values": [{"measurement": "IC50", "result": 27, "unit": "nM"}]}
